{"sequences": {"note": "By UniProt entry, the sequences of proteins in these tests, tags left out. Residues count along the entry.", "UniProt P06873, 106-384": "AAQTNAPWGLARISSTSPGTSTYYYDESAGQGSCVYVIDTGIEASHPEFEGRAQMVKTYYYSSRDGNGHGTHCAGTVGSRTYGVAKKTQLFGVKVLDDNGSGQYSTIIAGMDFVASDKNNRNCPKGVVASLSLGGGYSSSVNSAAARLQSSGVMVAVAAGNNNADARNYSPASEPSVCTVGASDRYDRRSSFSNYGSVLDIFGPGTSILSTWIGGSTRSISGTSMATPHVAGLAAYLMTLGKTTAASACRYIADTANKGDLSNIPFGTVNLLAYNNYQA"}, "source": "patent US10501780B2", "about": "“Compositions for in situ nucleic acid analysis” (APPLIED BIOSYSTEMS, LLC, priority 2007, dated 2019)", "target": "proteinase K (PK) (Parengyodontium album, UniProt P06873)", "type": "biochemical", "conditions": "PK 600 ug/ml, increasing inhibitor, 3 min; RNaseALERT fluorescence at 520 nm", "description": "PK (600 ug/ml) was mixed with increasing amounts of test inhibitor and allowed to react for 3 min at room temperature. RNase A was added and the mixture was incubated for 10 min. The RNase A was mixed with RNaseALERT™ substrate (AMBION®, Catalog No. AM1964) and incubated for 10 min. The fluorescence of the RNaseALERT™ substrate was measured at 520 nm."}
{"smiles": "O=S(=O)(F)Cc1ccccc1", "note": "[PMSF, phenylmethylsulfonylfluoride]", "values": [{"measurement": "inhibition of PK at room temperature", "value": "capable of inhibiting PK"}]}
